Yeast mating assay 2: variants of the scFv Ab-91

All variants were tested on one target, the spike HR2 peptide PDVDLGDISGINAS (SARS-CoV-2).

Each scFv is VL, the linker GGGGSGGGGSGGGGS, VH, as in the parent Ab-91, and differs from it in the CDRs of the heavy chain only.
VL: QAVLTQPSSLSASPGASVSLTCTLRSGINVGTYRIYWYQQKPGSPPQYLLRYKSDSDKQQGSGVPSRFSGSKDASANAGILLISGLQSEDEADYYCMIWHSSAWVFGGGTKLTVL
VH: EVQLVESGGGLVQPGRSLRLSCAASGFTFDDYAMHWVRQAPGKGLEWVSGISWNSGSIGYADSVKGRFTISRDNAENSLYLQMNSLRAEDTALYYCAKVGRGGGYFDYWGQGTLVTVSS

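Phage display of a naive human antibody library on the peptide gave the parent. Variants in AAYL51 differ from the parent at up to three CDR positions; double and triple changes were sampled at random. The scFvs were displayed on barcoded MATa yeast, the peptide on MATalpha yeast. The frequency of each diploid, read from paired DNA barcodes, reflects how well the two displayed proteins bind. Scores were corrected for input abundance and mapped to Kd with protein pairs of known affinity run in the same pool. There are three technical replicates.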

The parent's heavy chain CDRs are GFTFDDYAMH, GISWNSGSIGYADSVK, VGRGGGYFDY; each variant's own CDRs replace them letter for letter. The read-out is the apparent dissociation constant on a log10 scale (nM): the lower, the stronger. The mean shown is taken over the replicates in which the pair was detected. Where no diploid with the target was found in that replicate, the entry reads "nd": below detection, most likely a poor binder, though not proof of it. For reference, the parent read 1.86 as the reference entry and 0.88 as a member of this library. Empty control strains, which show no peptide, gave a signal in 21% of pairings with library AAYL51; the median was 4.54 and 95% of these signals were weaker than 3.26. No background was subtracted. Also given: how often the same scFv was detected with the empty control strains, with their mean in brackets.

CDR-H1,CDR-H2,CDR-H3,"replicates, log10 nM",mean log10 Kd (nM),control signals
GLTFDDYAWH,IISWNSGSIGYADSVK,VGRGGGYFDY,nd / 5.44 / nd,5.44,3/9 (5.61)
GFTYDDYAMH,GISWNSGDIGIADSVK,VGRGGGYFDY,3.41 / nd / 4.44,3.93,4/9 (3.95)
GNTFDDYKMH,GISWNSGSIGYADSVW,VGRGGGYFDY,4.26 / 5.05 / 5.24,4.85,3/9 (5.38)
GFTFDDYAMH,GISWNSYSIGYADSVK,VFRGGGYFDY,nd / 5.38 / nd,5.38,2/9 (3.25)
GFTFDDYAMH,GISPNSGSIGYADSVK,NGRGGGYFLY,nd / nd / nd,nd,2/9 (3.35)
DFTFDCYAMH,GISWNSGFIGYADSVK,VGRGGGYFDY,4.81 / nd / nd,4.81,3/9 (4.01)
GFTFDDYAMH,GSSWNSGSIGYADSVK,VLRGNGYFDY,nd / nd / nd,nd,0/9
GFNFDDYAMH,GMSWNSGSIGYADSVK,VERGGGYFDY,nd / 5.59 / nd,5.59,4/9 (4.63)
GFTFDDYAMH,GIDWNTGSIGYFDSVK,VGRGGGYFDY,nd / nd / nd,nd,0/9
GFTFDDYAMH,GISWNSGSIGYADSVK,NGRGGGPFPY,nd / nd / nd,nd,0/9
GFTFDDKAMH,GISWNSGSIGYADSVK,MGRIGGYFDY,nd / nd / nd,nd,0/9
GFTFDDYAMH,GINKNSGSIGYAFSVK,VGRGGGYFDY,5.48 / 6.77 / 5.23,5.83,6/9 (4.82)
GFTFDDYAMH,GISWPSGSIGYQDSVK,VGRGGGYFDY,5.23 / nd / 4.13,4.68,3/9 (4.42)
GFTFDDYMEH,GISWNSGSIVYADSVK,VGRGGGYFDY,2.45 / 2.57 / 2.42,2.48,1/9 (4.80)
GFGFDDYAMH,GIGWNSGSIGYADWVK,VGRGGGYFDY,nd / nd / nd,nd,1/9 (2.65)
GFTFDDYAMH,GISWNSGSIGYLDYVK,CGRGGGYFDY,3.08 / nd / nd,3.08,0/9
GFTFDDYNMH,GISWNSGSIGYADSVK,VHRGGGYFDM,nd / nd / 4.82,4.82,0/9
GFTFDDYRMH,GISWNSGSIGYADSVK,VGQAGGYFDY,nd / nd / nd,nd,0/9
GFTFDDYAMH,GISWNSGSDGYADSVD,VVRGGGYFDY,nd / nd / nd,nd,0/9
GFTFDDYAMK,GISTRSGSIGYADSVK,VGRGGGYFDY,nd / nd / nd,nd,0/9
GFTEDDYAMH,GISWASGSIGYADSVK,VGRGGGYFDY,nd / nd / nd,nd,1/9 (3.91)
GFTFDDYAMH,GISWNYGSIGYADSVW,VGRGTGYFDY,nd / 3.65 / nd,3.65,0/9
GFTFDSYALH,GISWNSGSIGYADSVK,VGRGGKYFDY,nd / 6.36 / nd,6.36,2/9 (5.12)
GFTFDDYAMH,GIQWNSISQGYADSVK,VGRGGGYFDY,4.63 / nd / nd,4.63,8/9 (4.66)
GFTFDDYAWH,GISWNSGSIGYAFSVK,VGRGGKYFDY,nd / nd / nd,nd,0/9
GFAFDDYACH,GISWTSGSIGYADSVK,VGRGGGYFDY,3.83 / nd / nd,3.83,0/9
GFTFDDYAMH,YGSWNSGSIGYADSVK,VGRGRGYFDY,4.79 / 4.65 / 5.62,5.02,4/9 (4.85)
GFTFDDYAMH,GISWNSGSIGYADSVK,RGRGGGYRFY,nd / nd / nd,nd,1/9 (3.93)
GFTFDDYAMH,GISWNSGEIGYADSVK,VGRGGGYFDY,0.90 / 0.85 / 0.22,0.66,8/9 (5.28)
GFTFDDYAMH,GISWNSGSIGYADSVK,VRRHGGYFDY,nd / nd / nd,nd,1/9 (4.32)
GFRFWDYAMH,GISWNCGSIGYADSVK,VGRGGGYFDY,4.03 / 3.31 / 3.93,3.75,3/9 (4.79)
GFTTDDYAMH,GISWNPSSIGYADSVK,VGRGGGYFDY,4.14 / nd / nd,4.14,1/9 (5.02)
GFTFDDYAMH,GISNESGSIGYADSVK,VGRHGGYFDY,nd / nd / nd,nd,0/9
GFTFDDFAMH,GISWNSGSIDYADSVK,VGPGGGYFDY,4.45 / 4.39 / nd,4.42,5/9 (4.20)
GFTFDDRAHG,GISWNSGSIGYADSVK,VGRGGGYFDY,nd / nd / nd,nd,3/9 (4.35)
GCTFDDYADH,GISWMSGSIGYADSVK,VGRGGGYFDY,3.56 / nd / nd,3.56,0/9
GFTFDDQAMH,GISQNSGSEGYADSVK,VGRGGGYFDY,nd / 3.84 / nd,3.84,0/9
GFTFDDYAMH,GISWNSGSIGYADSVN,VGRFGGYFDY,nd / 4.10 / 4.02,4.06,5/9 (4.55)
GFTFDDYCMH,GISWNSGSITYADSVK,RGRGGGYFDY,4.00 / 5.40 / 5.16,4.85,4/9 (4.87)

The 3 strongest on average among those seen in every replicate, once more:

CDR-H1,CDR-H2,CDR-H3,"replicates, log10 nM",mean log10 Kd (nM),control signals
GFTFDDYAMH,GISWNSGEIGYADSVK,VGRGGGYFDY,0.90 / 0.85 / 0.22,0.66,8/9 (5.28)
GFTFDDYMEH,GISWNSGSIVYADSVK,VGRGGGYFDY,2.45 / 2.57 / 2.42,2.48,1/9 (4.80)
GFRFWDYAMH,GISWNCGSIGYADSVK,VGRGGGYFDY,4.03 / 3.31 / 3.93,3.75,3/9 (4.79)

Values reported by Engelhart et al. 2022, doi:10.1038/s41597-022-01779-4 (FLAb copy).